From patent US11753408B2, “Compounds and method for blocking transmission of malarial parasite” (The United States of America, as represented by the …, priority 2016, dated 2023) come the findings set out here.

Series [1] deals with Stage III-V gametocytes (blood stage P. falciparum parasites). Description: In vitro drug activity on gametocytes (AlamarBlue viability assay). Conditions: read-out: Gametocyte EC50, 72 h incubation. In kind it is cell-based, Plasmodium falciparum. The protocol:
(§1) Cell culture. Asexual parasites of P. falciparum strain 3D7 were cultured as described previously [Trager W, et al., Journal of Parasitology 2005, 91: 484-486], Stage III-V gametocytes were selected and enriched with 3-day treatment with 50 mM N-acetylglucosamine (NAG) and the following Percoll density gradient centrifugation after gametocyte production [Tanaka T Q, et al., Molecular and Biochemical Parasitology, 2011, 111: 160-163], Gametocytes of HB3 and Dd2 strains were produced and then set up for assay in a similar process. HepG2 cells (ATCC, cat. no. 77400) were cultured in 175-cm^2 tissue culture flasks with 30 ml growth medium at 37° C. in a 5% CO2 humidified atmosphere. Growth medium was made with Dulbecco's Modified Eagle Medium with 10% fetal bovine serum (FBS). Growth medium was replaced every other day and cells were passed at 75% confluence.
Compound screening experiments were performed as previously described [Tanaka T Q et al., Molecular and Biochemical Parasitology, 2013, 3188: 20-25], Briefly, 2.5 μl/well incomplete medium was dispensed into each well of 1,536-well plates using the Multidrop Combi followed by 23 nl compound transferring using the NX-TR Pintool (WAKO Scientific Solutions, San Diego, Calif.). 2.5 μl/well of gametocytes was dispensed with a seeding density of 20,000 cells/well using the Multidrop Combi. The assay plates were incubated for 72 h at 37° C. with 5% CO2. After addition of 5 μl/well of 2× AlamarBlue dye (Life Technologies, cat. no. DALI 100), the plates were incubated for 24 h at 37° C. with 5% CO2 and were read in a fluorescence detection mode (Ex=525 nm, Em=598 nm) on a ViewLux plate reader (PerkinElmer).
Stage III-V gametocytes (blood stage P. falciparum parasites) were enriched with treatment with 50 mM N-acetylglucosamine (NAG) and Percoll density gradient centrifugation as described previously^1. Briefly, 2.5 μl/well incomplete medium was dispensed into each well of 1,536-well plates using the Multidrop Combi followed by 23 nl compound transfer using the NX-TR Pintool (WAKO Scientific Solutions, San Diego, Calif.). Then, 2.5 μl/well of gametocytes was dispensed with a seeding density of 20,000 cells/well using the Multidrop Combi. The assay plates were incubated for 72 h at 37° C. with 5% CO2. After addition of 5 μl/well of 2× AlamarBlue dye (Life Technologies, cat. no. DALI 100), the plates were incubated for 24 h at 37° C. with 5% CO2 and then were read in a fluorescence detection mode (Ex=525 nm, Em=598 nm) on a ViewLux plate reader (PerkinElmer).

Series [2] concerns Asexual parasites of P. falciparum strain 3D7. The experiment in a line: In vitro drug activity on asexual parasites (SYBR Green assay). In kind it is cell-based, Plasmodium falciparum. Particulars: read-out: Asexual EC50, P. falciparum 3D7 asexual parasites, 72 h. The method, then:
as §1
Asexual parasites of P. falciparum strain 3D7 were cultured as described previously (Trager, W. et al., J. Parasitol. 2005, 91(3): 484-486). Drug activity on asexual stage parasites was tested using a SYBR Green assay as described previously (Eastman, R. T. et al., Antimicrob. Agents Chemother. 2013, 57(1): 425-435; Smilkstein, M. et al., Antimicrob. Agents Chemother. 2004, 48(5): 1803-1806). Briefly, parasites were diluted to 0.5% parasitemia in complete culture medium with 2% hematocrit and drugs diluted in DMSO (≤0.5%) and were loaded into a 96-well plate (200 μl/well). No drug and RBC alone wells were included as positive and background controls, respectively, and each testing condition was examined in duplicated. After 72 h incubation under the standard culture condition and a freeze-thaw lysis step at −80° C. and room temperature, 100 μl/well of lysis buffer containing SYBR Green I was added to the parasite culture and incubated for 30 min at room temperature. The fluorescence of each well was measured at 520 nm following excitation at 490 nm using a FLUOstar Optima™ microplate reader (BMG Labtech).

A short description of series [3]: Microsomal stability (rat). In kind it is in vitro ADME. Conditions: rat microsomes.
The next series is described as follows: Solubility at pH 7.4. In kind it is physicochemical.

With `CN(C(=O)c1ccc(-n2c(=O)n(C)c3cnc4ccc(-c5ccc(N)nc5)cc4c32)cc1)C1CC1`, the EC50 in series [1] was 120 nM; in series [2] it was 50.7 nM. Further, the “Microsomal Stability (rat) T1/2” value in series [3] was over 30.0 min. The “Sol @ pH 7.4 (ug/mL)” value in “Solubility at pH 7.4” is reported as 1.9 ug/mL.

Turning to `CN(C(=O)c1ccc(-n2c(=O)n(C)c3cnc4ccc(-c5ccc(Cl)c(O)c5)cc4c32)cc1)C1CC1`, the EC50 in series [1] stood at 338 nM; in series [2], 218 nM. Further, the “Microsomal Stability (rat) T1/2” value in series [3] was 22.7 min. In addition, the “Sol @ pH 7.4 (ug/mL)” value in the series “Solubility at pH 7.4” was found to be 3.3 ug/mL.

In the case of `Cc1cc(C(=O)N2CCOCC2)ccc1-n1c(=O)n(C)c2cnc3ccc(-c4ccc(Cl)cc4)cc3c21`, the EC50 in series [1] stood at 1080 nM; in series [2] it was 218 nM. Besides, in series [3], the “Microsomal Stability (rat) T1/2” value is on record as 5.3 min. In addition, the “Sol @ pH 7.4 (ug/mL)” value in “Solubility at pH 7.4” stood at 2 ug/mL.

Take `O=C(c1ccc(-n2c(=O)[nH]c3cnc4ccc(-c5ccc(Cl)cc5)cc4c32)cc1)N1CCOCC1`: the EC50 came out at 2770 nM in series [1] and 2170 nM in series [2]. Besides, the “Microsomal Stability (rat) T1/2” value in series [3] is on record as 18.5 min. Besides, the “Sol @ pH 7.4 (ug/mL)” value in the series “Solubility at pH 7.4” is under 1.0 ug/mL.

As for `CN(C)Cc1ccc(-c2ccc3ncc4[nH]c(=O)n(-c5cccc(S(C)(=O)=O)c5)c4c3c2)cc1`, the EC50 in series [1] is 3740 nM; in series [2] it was 7800 nM. In addition, the “Microsomal Stability (rat) T1/2” value in series [3] is recorded as over 30 min. The “Sol @ pH 7.4 (ug/mL)” value in the series “Solubility at pH 7.4” is on record as 56.7 ug/mL.

On to `O=C(NC1CC1)c1ccc(-n2c(=O)[nH]c3cnc4ccc(-c5ccc(Cl)c(O)c5)cc4c32)cc1`, for which the results for the EC50 in series [1] and in series [2] were 7650 nM and 1090 nM, respectively. Also, in series [3], the “Microsomal Stability (rat) T1/2” value is listed as 19 min. In addition, the “Sol @ pH 7.4 (ug/mL)” value in the series “Solubility at pH 7.4” was under 1.0 ug/mL.

For the compound `CN(C)Cc1ccc(-c2ccc3ncc4c(c3c2)n(-c2ccc(C(=O)N3CCOCC3)cc2)c(=O)n4C)cc1`, the EC50 turned out to be 8020 nM in series [1] and 4800 nM in series [2]. Besides, the “Microsomal Stability (rat) T1/2” value in series [3] is recorded as over 30.0 min. Besides, the “Sol @ pH 7.4 (ug/mL)” value in “Solubility at pH 7.4” was over 77.0 ug/mL.

With `Cn1c(=O)n(-c2ccc(C(=O)N3CCOCC3)cc2)c2c3cc(-c4ccc(N)nc4)ccc3ncc21`, the EC50 amounted to 108 nM in series [1] and 82.2 nM in series [2]. In series [3], the “Microsomal Stability (rat) T1/2” value is on record as over 30.0 min. The “Sol @ pH 7.4 (ug/mL)” value in “Solubility at pH 7.4” is 1.1 ug/mL.

For the compound `CN(C)C(=O)c1ccc(-n2c(=O)n(C)c3cnc4ccc(-c5ccc(N)nc5)cc4c32)cc1`, the EC50 in series [1] was 106 nM; in series [2] it was 34.8 nM. The “Microsomal Stability (rat) T1/2” value in series [3] was over 30.0 min. Moreover, in “Solubility at pH 7.4”, the “Sol @ pH 7.4 (ug/mL)” value was found to be 7 ug/mL.

For the compound `Nc1ccc(-c2ccc3ncc4[nH]c(=O)n(-c5ccc(C(=O)NC6CC6)cc5)c4c3c2)cn1`, the EC50 in series [1] is 29000 nM; in series [2], 352 nM. The “Microsomal Stability (rat) T1/2” value in series [3] is listed as over 30.0 min. For the same compound, in “Solubility at pH 7.4”, the “Sol @ pH 7.4 (ug/mL)” value stood at 4.5 ug/mL.

As for `Nc1ccc(-c2ccc3ncc4[nH]c(=O)n(-c5ccc(C(=O)N6CCOCC6)cc5)c4c3c2)cn1`, the results for the EC50 in series [1] and in series [2] were 3350 nM and 302 nM, respectively. Further, in series [3], the “Microsomal Stability (rat) T1/2” value is listed as over 30.0 min. Further, in “Solubility at pH 7.4”, the “Sol @ pH 7.4 (ug/mL)” value was under 1.0 ug/mL.

Regarding `CN(C)Cc1ccc(-c2ccc3ncc4[nH]c(=O)n(-c5ccc6c(c5)CN(C)C6=O)c4c3c2)cc1`, the EC50 in series [1] amounted to 16900 nM; in series [2] it was 5660 nM. The “Microsomal Stability (rat) T1/2” value in series [3] was found to be 2.2 min. Also, the “Sol @ pH 7.4 (ug/mL)” value in “Solubility at pH 7.4” was 54.4 ug/mL.

Take `CCN1Cc2cc(-n3c(=O)[nH]c4cnc5ccc(-c6ccc(CN(C)C)cc6)cc5c43)ccc2C1=O`: the EC50 came to 11300 nM in series [1] and 3530 nM in series [2]. Moreover, the “Microsomal Stability (rat) T1/2” value in series [3] is reported as over 30.0 min. Also, the “Sol @ pH 7.4 (ug/mL)” value in the series “Solubility at pH 7.4” was found to be 58.6 ug/mL.

Turning to `Cc1cc(C(=O)N2CCOCC2)ccc1-n1c(=O)n(C)c2cnc3ccc(-c4ccc(N)nc4)cc3c21`, the results for the EC50 in series [1] and in series [2] were 150 nM and 50.9 nM, respectively. For the same compound, in series [3], the “Microsomal Stability (rat) T1/2” value was over 30 min. The “Sol @ pH 7.4 (ug/mL)” value in “Solubility at pH 7.4” came to 3.9 ug/mL.

As to `Cn1c(=O)n(-c2ccc(C(=O)N3CCOCC3)cc2)c2c3cc(-c4ccc(Cl)c(O)c4)ccc3ncc21`, the EC50 in series [1] is 237 nM; in series [2], 54.7 nM. Also, the “Microsomal Stability (rat) T1/2” value in series [3] was over 30.0 min. Besides, in “Solubility at pH 7.4”, the “Sol @ pH 7.4 (ug/mL)” value was under 1.0 ug/mL.

Take `Cc1cc(C(=O)N2CCOCC2)ccc1-n1c(=O)[nH]c2cnc3ccc(-c4ccc(N)nc4)cc3c21`: the EC50 came out at 2230 nM in series [1] and 226 nM in series [2]. For the same compound, in series [3], the “Microsomal Stability (rat) T1/2” value was over 30.0 min. For the same compound, in the series “Solubility at pH 7.4”, the “Sol @ pH 7.4 (ug/mL)” value came out at 1.6 ug/mL.
